ChEMBL document CHEMBL1926669, “Quantitative structure-activity relationships of 1,3,4-thiadiazol-2(3H)-ones and 1,3,4-oxadiazol-2(3H)-ones as human protoporphyrinogen oxidase inhibitors” (Bioorg Med Chem, 2012)

Target: T1, Protoporphyrinogen oxidase (Homo sapiens, UniProt P50336)
T1 sequence (P50336 whole entry): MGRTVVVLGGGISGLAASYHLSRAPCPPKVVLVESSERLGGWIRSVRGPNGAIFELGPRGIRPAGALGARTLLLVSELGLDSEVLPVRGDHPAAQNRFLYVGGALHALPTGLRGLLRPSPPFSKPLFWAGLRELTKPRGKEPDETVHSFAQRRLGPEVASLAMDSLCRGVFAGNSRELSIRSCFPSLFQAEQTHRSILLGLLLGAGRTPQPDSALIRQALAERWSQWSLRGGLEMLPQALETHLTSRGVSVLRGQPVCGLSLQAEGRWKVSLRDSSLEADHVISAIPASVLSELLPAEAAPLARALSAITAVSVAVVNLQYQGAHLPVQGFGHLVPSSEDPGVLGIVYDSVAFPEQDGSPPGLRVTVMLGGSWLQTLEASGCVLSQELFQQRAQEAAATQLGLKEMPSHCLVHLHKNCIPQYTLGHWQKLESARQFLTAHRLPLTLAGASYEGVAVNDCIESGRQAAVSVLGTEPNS
Assay: Inhibition of human PPO by capillary electrophoresis method

Row | Structure (SMILES) | Ki [µM]
1 | CCCOC(=O)CSc1nc2cc(-n3nc(C(C)(C)C)sc3=O)c(F)cc2s1 | 1.31
2 | CCOC(=O)CCSc1nc2cc(-n3nc(C(C)(C)C)sc3=O)c(F)cc2s1 | 9.26
3 | CCOC(=O)CCCSc1nc2cc(-n3nc(C(C)(C)C)sc3=O)c(F)cc2s1 | 8.67
4 | C#CCSc1nc2cc(-n3nc(C(C)(C)C)sc3=O)c(F)cc2s1 | 9.73
5 | CCOC(=O)CSc1nc2cc(-n3nc(C(C)(C)C)sc3=O)c(Cl)cc2s1 | 5.82
6 | CCOC(=O)CCSc1nc2cc(-n3nc(C(C)(C)C)sc3=O)c(Cl)cc2s1 | 1.28
